From ChEMBL document CHEMBL1125689, “Structure-activity studies on a potent antagonist to organophosphate-induced toxicity” (1991)

Sequences of proteins named here, by UniProt entry; tags and fusion partners are left off. Residues count along the entry.
UniProt P23795, 31-613 limits assumed: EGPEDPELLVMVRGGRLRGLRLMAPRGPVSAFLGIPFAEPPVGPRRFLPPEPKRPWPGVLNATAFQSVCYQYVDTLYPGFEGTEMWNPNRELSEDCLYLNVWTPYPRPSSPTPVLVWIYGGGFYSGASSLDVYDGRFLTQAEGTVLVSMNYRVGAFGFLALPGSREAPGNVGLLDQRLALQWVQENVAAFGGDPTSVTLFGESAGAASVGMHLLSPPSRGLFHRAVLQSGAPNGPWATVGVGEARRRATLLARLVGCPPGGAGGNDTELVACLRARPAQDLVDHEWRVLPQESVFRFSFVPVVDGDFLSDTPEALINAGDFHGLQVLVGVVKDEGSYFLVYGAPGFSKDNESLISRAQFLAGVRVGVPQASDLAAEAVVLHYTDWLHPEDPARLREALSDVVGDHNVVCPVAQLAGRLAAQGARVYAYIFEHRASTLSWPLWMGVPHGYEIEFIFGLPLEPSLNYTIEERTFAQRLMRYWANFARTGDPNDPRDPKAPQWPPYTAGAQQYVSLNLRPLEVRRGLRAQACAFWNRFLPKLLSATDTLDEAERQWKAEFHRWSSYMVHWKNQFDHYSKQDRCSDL

How the values were obtained:
[1] = test system: Mus musculus; assay: Ability to antagonize paraoxon-induced lethality in mice.(umol/kg required to protect 50% of the mice for 24 h versus a LD99 dose of paraoxon)
[2] = test system: Mus musculus; assay: Ability to antagonize paraoxon (1.0 mg/kg sc)-induced motor incoordination in mice.
[3] = molecular target: Acetylcholinesterase (Bos taurus, UniProt P23795); assay: Concentration required to inhibit hydrolytic activity of bovine erythrocyte acetylcholinesterase by 50%
[4] = test system: Mus musculus; assay: Compound was evaluated for therapeutic index (LD50 / ED50), in mice
[5] = species: Mus musculus; assay: Compound was evaluated for the survival time of mice with the combination of Pyridostigmine
[6] = species: Mus musculus; assay: Compound was evaluated for the survival time of mice with the combination of Compound 1
[7] = species: Mus musculus; assay: Compound was evaluated for the survival time of mice with the combination of physostigmine

With `CN(C)C(=O)Oc1ccc[n+](C)c1` as the compound, how does the PD50 [1] read?
The PD50 was 0.66 µM/kg.

And the ED50 [2]?
The ED50 was 0.0136 µmol/kg.

How did the IC50 [3] turn out when `C[N+](C)(CC(=O)c1ccc(-c2ccc(C(=O)C[N+](C)(C)CC3CCOCO3)cc2)cc1)CC1CCOCO1` (stereo not drawn) was run?
The IC50 was 14.2 µM.

`C[N+](C)(CC(=O)c1ccc(-c2ccccc2)cc1)CC1OCCCO1` was tested. Which IC50 [3] did it give?
The IC50 was 20.1 µM.

Which PD50 [1] does the source give for `C[N+](C)(CC(=O)c1ccc(-c2ccc(C(=O)C[N+](C)(C)CC3CCCCO3)cc2)cc1)CC1CCCCO1.[Br-].[Br-]` (stereo not drawn) here?
The PD50 was 0.7 µM/kg.

What about the Therapeutic index [4] of the same compound?
The Therapeutic index was 10.

How did the IC50 [3] turn out when `C[N+](C)(CC(=O)c1ccc(-c2ccc(C(=O)C[N+](C)(C)CC3OCCCO3)cc2)cc1)CC1OCCCO1` was run?
The IC50 was 0.003 µM.

With `C[N+](C)(CC(=O)c1ccc(-c2ccc(C(=O)C[N+](C)(C)CC3CCCCC3)cc2)cc1)CC1CCCCC1` as the compound, how does the IC50 [3] read?
The IC50 was 25 µM.

What does the source list for `C[N+](C)(CC(=O)c1ccc(-c2ccc(C(=O)C[N+](C)(C)CC3OCCCO3)cc2)cc1)CC1OCCCO1.[Br-].[Br-]`?
PD50 [1]: 0.019 µM/kg; ED50 [2]: 0.0031 µmol/kg; Therapeutic index [4]: 380

`C[N+](C)(CC(=O)c1ccc(-c2ccc(C(=O)C[N+](C)(C)CC3OCCO3)cc2)cc1)CC1OCCO1` was tested. Which IC50 [3] did it give?
Its IC50 is 9.9 µM.

How did the IC50 [3] turn out when `C[N+](C)(C)CC1OCCCO1` was run?
The IC50 was > 100 µM.

Which Survival time [5] does the source give for `CCOP(=O)(OCC)Oc1ccc([N+](=O)[O-])cc1.CN1C=C(OC(=O)N(C)C)C=CC1` here?
Its Survival time is < 2 min.

For `CCOP(=O)(OCC)Oc1ccc([N+](=O)[O-])cc1.C[N+](C)(CC(=O)c1ccc(-c2ccc(C(=O)C[N+](C)(C)CC3OCCCO3)cc2)cc1)CC1OCCCO1.[Br-].[Br-]`, which Survival time [6] is on record?
The Survival time was 24 h.

For `C[N+](C)(CC(=O)c1ccccc1)CC1OCCCO1`, which IC50 [3] is on record?
Its IC50 is > 100 µM.

How did the Survival time [7] turn out when `CCOP(=O)(OCC)Oc1ccc([N+](=O)[O-])cc1.CNC(=O)Oc1ccc2c(c1)[C@]1(C)CCN(C)[C@@H]1N2C` was run?
Its Survival time is < 2 min.

How did the IC50 [3] turn out when `C[N+](C)(CC(=O)c1ccc(-c2ccc(C(=O)C[N+](C)(C)CC3CCCCO3)cc2)cc1)CC1CCCCO1` (stereo not drawn) was run?
The IC50 was 6.9 µM.
